Target: C-Raf FL (Homo sapiens (Human), UniProt P04049, Y340E/Y341E)
Assay: In vitro Raf activity determination (Alpha Screen, phospho-MEK), C-Raf FL (full length, Y340E/Y341E)
Assay type: biochemical
Conditions: ATP 1 μM; 60 min pre-incubation; 1 hour reaction; column head does not say FL or TR
From the text: The activity of a compound according to the present invention can be assessed by well-known in vitro & in vivo methods. Raf inhibition data provided herein was obtained using the following procedures.
Sf9 cells co-expressing both proteins were lysed and subjected to immobilized nickel chromatography and eluted with Imidazole. A second column (StrepII binding column) was used and eluted with desthiobiotin. Protein Tags were removed using Prescission enzyme and the protein was further purified using a flowthrough step to remove tags.
C-Raf TR refers to a truncated C-Raf protein, a Δ1-324 deletion mutant. C-Raf FL refers to the full-length C-Raf protein.
Full length MEK1 with an inactivating K97R ATP binding site mutation is utilized as a RAF substrate. The MEK1 cDNA was subcloned with an N-terminal (his)6 tag into a vector for E. Coli expression. […]
Assay protocol: Raf and biotinylated Mek (kinase dead) were combined at 2× final concentrations in assay buffer (50 mM Tris, pH 7.5, 15 mM MgCl2, 0.01% BSA and 1 mM DTT) and dispensed […] per well in assay plates (Greiner white 384 well assay plates #781207) containing […] of 40× of a Raf kinase inhibitor test compound diluted in 100% DMSO. […] A lid was placed on top of the plate and incubated for 1 hour at room temperature, after which the luminescence was read on a PerkinElmer Envision instrument. […]

By UniProt entry, the sequences of proteins in these tests, tags left out.
UniProt P04049, whole entry Y340E/Y341E: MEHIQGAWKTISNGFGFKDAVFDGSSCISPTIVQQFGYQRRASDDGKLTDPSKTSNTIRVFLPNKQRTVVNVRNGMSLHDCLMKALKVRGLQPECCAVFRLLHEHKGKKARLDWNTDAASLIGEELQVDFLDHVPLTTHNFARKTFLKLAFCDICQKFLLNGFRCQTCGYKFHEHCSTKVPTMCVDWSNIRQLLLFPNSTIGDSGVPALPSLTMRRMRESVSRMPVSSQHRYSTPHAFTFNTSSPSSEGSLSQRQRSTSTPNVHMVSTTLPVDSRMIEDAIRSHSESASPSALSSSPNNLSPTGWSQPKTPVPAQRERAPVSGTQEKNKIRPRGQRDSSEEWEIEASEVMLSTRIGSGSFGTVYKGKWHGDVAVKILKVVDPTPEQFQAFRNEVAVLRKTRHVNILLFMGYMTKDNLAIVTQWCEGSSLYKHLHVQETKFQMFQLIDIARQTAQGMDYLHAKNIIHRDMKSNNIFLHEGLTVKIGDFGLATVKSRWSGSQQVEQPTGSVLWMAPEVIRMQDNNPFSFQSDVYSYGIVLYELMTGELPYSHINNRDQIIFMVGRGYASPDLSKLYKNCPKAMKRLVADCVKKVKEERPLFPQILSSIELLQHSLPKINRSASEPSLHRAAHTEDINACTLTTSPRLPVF

IC50: 2.39 nM
Structure (SMILES): COc1ncc(-c2cc(NC(=O)c3cc(C(C)(F)F)ccn3)cnc2C)cc1C1(O)COC1 [Example 91]
